Test system: glioblastoma cell line T98G
Assay: Combination index (Chou-Talalay) of DNA damaging agent with Compound 1
Type: cell-based
Conditions: T98G (O^6-MGMT^+); Compound 1 at its IC50 combined with dose response of the agent; CI < 1 synergism

SMILES: CN(N=O)C(=O)N[C@H]1C(O)O[C@H](CO)[C@@H](O)[C@@H]1O (mixture of isomers) [Streptozotocin]
- Mean CI ± SD (combination index with Compound 1): 0.56 ± 0.05

From patent US8211912B2, “Compositions and methods for effecting NAD+ levels using a nicotinamide phosphoribosyl tranferase inhibitor” (Gemin X Pharmaceuticals Canada, priority 2007, dated 2012)
